From PubChem BioAssay (NCI)
“And” between values parts separate entries of the source, which are not always exact repeats. Identical values can stand only once. This is a selection; strong and weak results do not stand in their true shares.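 Assay: single dose, 48 h. Readout: percent growth (0 = no net growth; negative = cell death). Active: <10.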 The source made the active and inactive calls.

test system: MDA-MB-468 breast; test: NCI-60 one-dose screen, 48 h (100 = growth as untreated, 0 = no growth, -100 = all killed); conditions: 10 µM

Row | SMILES | growth
1 | CC1(C)NC(=O)N(CCN(CCCl)CCCl)C1=O | inactive: 99.5%
2 | CCOC(=O)c1ccc(N(CCCl)CCCl)cc1 | inactive: 107%
3 | O=C(O)CCCCc1ccc(N(CCCl)CCCl)cc1 | inactive: 91.3%
4 | OCC#CCN(CCCl)CCCl | inactive: 89.8%
5 | N#Cc1ccc(N(CCCl)CCCl)cc1 | inactive: 111%
6 | O=C1C(=O)N(CN(CCCl)CCCl)c2ccccc21 | inactive: 108%
7 | COc1c(C)cc(N(CCCl)CCCl)c2ccccc12 | inactive: 38.9%
8 | Cc1ccc(N(CCCl)CCCl)cc1 | inactive: 29.8%
9 | O=CC(O)C(O)C(O)C(O)CN(CCCl)CCCl (stereo unspecified) | inactive: 98.6%
10 | Cc1cc(O)c(CN(CC(C)Cl)CC(C)Cl)cc1C (stereo unspecified) | inactive: 128%
11 | COc1cc(N(CCCl)CCCl)cc(OC)c1OC | inactive: 79.6%
12 | Cc1ccc(NC2(C(N)=O)CCNCC2)cc1 | inactive: 103%
13 | Cc1cccc(CN(CCCl)CCCl)c1 | inactive: 82.6%
14 | Cc1ccc(CN(CCCl)CCCl)cc1 | inactive: 71.9%
15 | Oc1ccc(N(CCCl)CCCl)cc1 | inactive: 42%
16 | CCOP(=O)(Cl)OCC | inactive: 113%
17 | C1CCNCC1.O=C(O)C(O)c1ccc(N(CCCl)CCCl)cc1 (stereo unspecified) | inactive: 94.3%
18 | ClCCN(CCCl)Cc1ccc2c(c1)OCO2 | inactive: 67.8%

Row | SMILES | growth
19 | Fc1ccc(CCN(CCCl)CCCl)cc1 | inactive: 97.4%
20 | Cc1ccc(C(=O)N(CCCl)CCCl)cc1 | inactive: 95.5%
21 | N#CC1(Nc2ccc(Cl)cc2)CCN(Cc2ccccc2)CC1 | inactive: 86.7%
22 | c1ccc(CN2CCC(Nc3ccccc3)CC2)cc1 | inactive: 104%
23 | ClCCN1CCN(CCCl)CC1 | inactive: 93.8% and inactive: 77.2%
24 | CC(C)NP(=O)(F)NC(C)C | inactive: 104%
25 | ClCCSC(SCCCl)=C(SCCCl)SCCCl | inactive: 54.7%
26 | COc1cc(CN(CCCl)CCBr)cc(OC)c1 | inactive: 113%
27 | Oc1ccc(O)c(CN(CCCl)CCCl)c1 | inactive: 101%
28 | COc1cccc(N(CCCl)CCCl)c1OC | inactive: 46.9%
29 | COc1cc(CN(CCCl)CCCl)cc(OC)c1 | inactive: 97.2%
30 | CCNC(=O)Cc1ccc(N(CCCl)CCCl)cc1 | inactive: 73.2%
31 | C[N+](C)(CCCl)CCCl | inactive: 104%
32 | O=C(O)Cc1c[nH]c2ccc(N(CCCl)CCCl)cc12 | inactive: 106%
33 | CCCSP(=O)(CCl)N(CCCl)CCCl (stereo unspecified) | inactive: 95.8%
34 | [O-][n+]1onc(-c2ncon2)c1-c1ncon1 | inactive: 44.5%
35 | Cc1cccc(C(=O)N(CCCl)CCCl)c1 | inactive: 96.4%
36 | COc1ccc(N)cc1CN(CCCl)CCCl | inactive: 75.1%
